Here are results for one molecule from patent publication US11872282B2 (priority 2015, dated 2024).

This assay has as its system recurrent partially platinum sensitive or resistant epithelial ovarian, primary peritoneal or fallopian tube cancers. Put plainly: Phase 3, randomized, double-blind trial of weekly paclitaxel plus AMG 386 (2XCon4(C)) or placebo (NCT01204749). The conditions noted are these: in vivo.

Take `CC(=O)O[C@H]1C(=O)[C@@]2(C)[C@H]([C@H](OC(=O)c3ccccc3)[C@]3(O)C[C@H](OC(=O)[C@H](O)[C@@H](NC(=O)c4ccccc4)c4ccccc4)C(C)=C1C3(C)C)[C@]1(OC(C)=O)CO[C@@H]1C[C@@H]2O` [paclitaxel alone, paclitaxel]: the “time to second subsequent therapy (TSST)” value is 11.7 months.
